Target: UBE2L3-Ub conjugate (human | , UniProt P68036 1-154; P0CG48 1-76, ubiquitin covalently conjugated (linkage for the ITC sample not stated))
Assay: ITC; in the presence of M1-2Ub (1:4)

By UniProt entry, the sequences of proteins in these tests, tags left out. Where a name states a change or a piece, a line headed by the entry shows the natural chain unless it says otherwise.
UniProt P68036: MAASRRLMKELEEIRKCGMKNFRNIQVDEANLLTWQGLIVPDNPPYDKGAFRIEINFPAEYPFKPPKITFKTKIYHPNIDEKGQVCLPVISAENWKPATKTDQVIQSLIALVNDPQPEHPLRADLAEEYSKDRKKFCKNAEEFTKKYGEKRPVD

Kd: 1430 nM
B1: HOIP (residues 697–1072) (domain or fragment)
chain: QECAVCGWALPHNRMQALTSCECTICPDCFRQHFTIALKEKHITDMVCPACGRPDLTDDTQLLSYFSTLDIQLRESLEPDAYALFHKKLTEGVLMRDPKFLWCAQCSFGFIYEREQLEATCPQCHQTFCVRCKRQWEEQHRGRSCEDFQNWKRMNDPEYQAQGLAMYLQENGIDCPKCKFSYALARGGCMHFHCTQCRHQFCSGCYNAFYAKNKCPEPNCRVKKSLHGHHPRDCLFYLRDWTALRLQKLLQDNNVMFNTEPPAGARAVPGGGCRVIEQKEVPNGLRDEACGKETPAGYAGLCQAHYKEYLVSLINAHSLDPATLYEVEELETATERYLHVRPQPLAGEDPPAYQARLLQKLTEEVPLGQSIPRRRK
